In article PMC11181336, “Discovery of ITI-333, a Novel Orally Bioavailable Molecule Targeting Multiple Receptors for the Treatment of Pain and Other Disorders” (Journal of Medicinal Chemistry, 2024):

Legend:
human recombinant MOR = human recombinant MOR (Homo sapiens, UniProt P35372); experiment: μ-Opioid receptor binding, [3H]DAMGO displacement; settings: read-out: Mu Ki
δ opioid receptors = δ opioid receptors (Homo sapiens, UniProt P41143); experiment: Broad screen binding, δ opioid receptor
[1] = biological target: nociception opioid receptors (Homo sapiens, UniProt P41146); experiment: Broad screen binding, nociception opioid receptor
κ opioid receptors = κ opioid receptors (Homo sapiens, UniProt P41145); experiment: Broad screen binding, κ opioid receptor
male CD-1 mice = experiment: Tail flick (TF) assay, acute nociception; format: in vivo

N#Cc1ccc(OCCCN2CC[C@H]3[C@@H](C2)c2cccc4c2N3CC(=O)N4)cc1
Ki (human recombinant MOR): 15 nM

O=C1CN2c3c(cccc3[C@@H]3CN(CCCNc4ccc(F)cc4)CC[C@@H]32)N1
Ki (human recombinant MOR): 10.8 nM

O=C1CN2c3c(cccc3[C@@H]3CN(CCCOc4cccc5cccnc45)CC[C@@H]32)N1
Ki (human recombinant MOR): 11 nM

O=C1CN2c3c(cccc3[C@@H]3CN(CCCSc4ccc(F)cc4)CC[C@@H]32)N1
Ki (human recombinant MOR): 12.9 nM

O=C1CN2c3c(cccc3[C@@H]3CN(CCCOc4ccc(F)cc4)CC[C@@H]32)N1 [compound 5, (6bR,10aS)-8-(3-(4-Fluorophenoxy)propyl)-6b,7,8,9,10,10a-hexahydro-1H-pyrido[3′,4′:4,5]pyrrolo[1,2,3-de]quinoxalin-2(3H)-one]
binding to δ opioid receptors (δ opioid receptors): no significant binding | binding to nociception opioid receptors [1]: no significant binding | binding to κ opioid receptors (κ opioid receptors): no significant binding | acute analgesic effects after subchronic treatment (male CD-1 mice; ITI-333 0.3 or 3 mg/kg SC once daily for 14 days, acute dose on day 15, vs subchronic vehicle): maintained and were only slightly attenuated | latency to respond to a nociceptive stimulus in the TF assay (male CD-1 mice; ITI-333 orally alone, 1, 3 or 10 mg/kg, 30 min prior): dose-dependently increased | ED50, latency to tail flick pain response (male CD-1 mice; acute subcutaneous administration 30 min prior to assay, % MPE): 0.016 mg/kg | analgesic effect after pretreatment with naloxone (male CD-1 mice; naloxone 3 mg/kg IP 20 min prior to ITI-333 (PO) or morphine (SC)): attenuated | latency to tail flick compared to the vehicle (male CD-1 mice; subcutaneous, 30 min prior, ITI-333 0.003-1 mg/kg, morphine 5 mg/kg): dose-dependently increased

O=C1CN2c3c(cccc3[C@@H]3CN(CCCOc4ccccc4)CC[C@@H]32)N1 [compound 23, (6bR,10aS)-8-(3-Phenoxypropyl)-6b,7,8,9,10,10a-hexahydro-1H-pyrido[3′,4′:4,5]-pyrrolo[1,2,3-de]quinoxalin-2(3H)-one]
Ki (human recombinant MOR): 19.7 nM

O=C1CN2c3c(cccc3[C@@H]3CN(CCCc4n[nH]c5cc(F)ccc45)CC[C@@H]32)N1 [compound 24, (6bR,10aS)-8-(3-(6-Fluoro-1H-indazol-3-yl)propyl)-6b,7,8,9,10,10a-hexahydro-1H-pyrido[3′,4′:4,5]pyrrolo-[1,2,3-de]quinoxalin-2(3H)-one]
Ki (human recombinant MOR): 39 nM

O=C1CN2c3c(cccc3[C@@H]3CN(CCCc4noc5cc(F)ccc45)CC[C@@H]32)N1 [compound 26, (6bR,10aS)-8-(3-(6-Fluorobenzo[d]isoxazol-3-yl)propyl)-6b,7,8,9,10,10a-hexahydro-1H-pyrido[3′,4′:4,5]-pyrrolo[1,2,3-de]quinoxalin-2(3H)-one]
Ki (human recombinant MOR): 30 nM
